The values below are quoted from earlier work in patent publication US20150033371A1, “HAIR FOLLICLE STEM CELLS AND METHODS OF USE SAME” (University of Southern California, priority 2011, published 2015).

The data set deals with gremlin. The settings on record: reported; cited from earlier work.

B1: BMP-2: bone morphogenetic protein 2 (protein, UniProt P12643 283-396, looked up)
Bone morphogenetic protein 2: QAKHKQRKRLKSSCKRHPLYVDFSDVGWNDWIVAPPGYHAFYCHGECPFPLADHLNSTNHAIVQTLVNSVNSKIPKACCVPTELSAISMLYLDENEKVVLKNYQDMVVEGCGCR
Regarding B1, the gremlin level entry was “time- and dose-dependent increase in gremlin”.
